Measurements from ChEMBL document CHEMBL1149338, “Synthesis and in vitro evaluation of salvinorin A analogues: effect of configuration at C(2) and substitution at C(18)” (Bioorg Med Chem Lett, 2006).

The chains behind the UniProt entries cited, without tags or fusion partners. Where a name states a change or a piece, a line headed by the entry shows the natural chain unless it says otherwise.
UniProt P41145: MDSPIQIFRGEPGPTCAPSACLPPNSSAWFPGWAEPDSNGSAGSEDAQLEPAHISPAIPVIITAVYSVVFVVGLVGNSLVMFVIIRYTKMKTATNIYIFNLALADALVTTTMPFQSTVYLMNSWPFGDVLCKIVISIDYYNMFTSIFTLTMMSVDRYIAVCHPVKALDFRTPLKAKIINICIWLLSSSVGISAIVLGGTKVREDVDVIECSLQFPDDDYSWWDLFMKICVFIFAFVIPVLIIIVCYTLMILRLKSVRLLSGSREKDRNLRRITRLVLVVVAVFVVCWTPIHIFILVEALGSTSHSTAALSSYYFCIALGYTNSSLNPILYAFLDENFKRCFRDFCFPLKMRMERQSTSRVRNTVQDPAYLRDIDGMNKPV

What was measured:
[1] = target: T1, Kappa-type opioid receptor (Homo sapiens, UniProt P41145); assay: Inhibition of [3H]diprenorphine binding to human KOR expressed in CHO cells; format: cell-based
Outline: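 Affinity: membranes from CHO cells stably transfected with human κ-opioid receptor; competitive inhibition of [3H]diprenorphine binding; Ki values; mean of at least three independent experiments, each in duplicate.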

[2] = target: T1, Kappa-type opioid receptor; assay: Enhancement of [35S]GTP-gamma-S binding to human KOR expressed in CHO cells; format: functional, cell-based
[3] = target: T1, Kappa-type opioid receptor; assay: Enhancement of [35S]GTP-gamma-S binding to human KOR expressed in CHO cells relative to U50,488H; format: functional, cell-based

SMILES	Ki [1] [nM]	EC50 [2] [nM]	Efficacy [3] [%]
COC(=O)[C@@H]1C[C@@H](N(C)C(C)=O)C(=O)[C@H]2[C@@]1(C)CC[C@H]1C(=O)O[C@H](c3ccoc3)C[C@]21C	16.5	21	
COC(=O)[C@@H]1C[C@H](NC(C)=O)C(=O)[C@H]2[C@@]1(C)CC[C@H]1C(=O)O[C@H](c3ccoc3)C[C@]21C			106
COC(=O)[C@@H]1C[C@@H](NC(C)C)C(=O)[C@H]2[C@@]1(C)CC[C@H]1C(=O)O[C@H](c3ccoc3)C[C@]21C			107
COC(=O)[C@@H]1C[C@@H](NC(C)=O)C(=O)[C@H]2[C@@]1(C)CC[C@H]1C(=O)O[C@H](c3ccoc3)C[C@]21C			103
COC(=O)[C@@H]1C[C@H](NC(C)C)C(=O)[C@H]2[C@@]1(C)CC[C@H]1C(=O)O[C@H](c3ccoc3)C[C@]21C			99
CCN[C@H]1C[C@@H](C(=O)OC)[C@]2(C)CC[C@H]3C(=O)O[C@H](c4ccoc4)C[C@]3(C)[C@H]2C1=O			104
COC(=O)[C@@H]1C[C@@H](O)C(=O)[C@H]2[C@@]1(C)CC[C@H]1C(=O)O[C@H](c3ccoc3)C[C@]21C	> 10000		
